## Apparent affinities of Ab-14 variants for a coronavirus HR2 peptide

All variants were tested on one target, the spike HR2 peptide PDVDLGDISGINAS (SARS-CoV-2).

The variants keep the heavy chain, the linker and the frameworks of Ab-14 (scFv order VH, the linker GGGGSGGGGSGGGGS, VL).
VH: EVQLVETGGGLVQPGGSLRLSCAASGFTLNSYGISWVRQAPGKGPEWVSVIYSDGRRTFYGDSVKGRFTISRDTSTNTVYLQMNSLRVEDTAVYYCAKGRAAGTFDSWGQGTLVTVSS
VL: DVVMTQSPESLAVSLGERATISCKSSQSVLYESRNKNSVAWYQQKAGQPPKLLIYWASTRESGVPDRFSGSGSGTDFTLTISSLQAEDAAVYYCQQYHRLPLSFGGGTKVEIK

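Phage display of a naive human antibody library on the peptide gave the parent. This is the validation round: designs drawn from the data on random variants, tested in the same kind of assay. Group labels follow the data file (Ctrl: baseline library sampled from a position-specific scoring matrix, with some repeated check sequences; En: ensemble of fine-tuned language models; GP: Gaussian process model; HC: hill climbing; Gen: genetic algorithm; Gibbs: Gibbs sampling; a sequence that several methods proposed may carry one label only). The assay is AlphaSeq: two haploid yeast populations carry antibody and antigen on their surface. Binding brings cells together so that they mate, and sequencing counts the barcode pairs among the diploids. The ratio of observed to expected reads was calibrated, replicate by replicate, on BCL2-family standards whose Kd was known from biolayer interferometry. Mating was done six times.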

Variants are written as CDR1, CDR2 and CDR3 of the light chain (limits as in the source). Parent: KSSQSVLYESRNKNSVA, WASTRES, QQYHRLPLS.
Numbers give log10(Kd / nM), so 0 is 1 nM and 3 is 1 µM. Smaller is tighter.
Replicates are averaged; those with no signal do not enter the mean.
"no signal" means that the variant was in the library but no mating with the target was seen in any replicate; the authors take this as a sign of poor binding, and no number exists.
The authors averaged sequences with at least three values out of six and counted those with two or fewer as poor binders.
The range of this assay differs from that of the first round, and the authors advise against merging the two.
As a blank, each scFv also met three strains without target: over all light chain designs, 4% of these pairings were detected, typically at 2.64 and seldom below 1.59.
Of ten entries with the parent sequence, four were seen in most replicates (averages 0.34 to 2.37), three in one and three in none, so single entries are noisy.

CDR-L1 | CDR-L2 | CDR-L3 | group | log10 Kd (nM), mean | seen in
KVSEFERGLMSRQDSIA | DNVTRNN | QQYDRLPLS | En_Gen | 2.61 | 1 of 6
KLQQSWEYESRNKNSVA | HASTRED | QQYHRLPLS | GP_HC | 0.38 | 6 of 6
KLQFSCLYESRNKNSVA | DASYRLS | QQYHRLPLS | GP_Gibbs | 0.76 | 6 of 6
KWSQSQLYESRNKNSVA | NASQRES | QQYHRLPLS | GP_Gen | no signal | 0 of 6
KISQSVEYESFNKNSVA | WASTRES | QQYHRLPLS | Ctrl | 1.37 | 6 of 6
KVSQSHDYESRNKNSVA | HASTRCS | QDYHRLPLS | GP_Gibbs | 0.62 | 6 of 6
KLYQSVLYESRNKNAVA | NASTRES | QQYHRLPLS | GP_Gen | -0.24 | 6 of 6
KLNDTFQQYERNNSSVA | DAIISEQ | QQYARLPLI | En_Gibbs | 0.54 | 6 of 6
KLSYVTHSESRNKNSIA | EMVTREV | QQYDRLPLS | En_HC | 2.44 | 5 of 6
KSSQSVLYESRNKNSVA | RASTRES | QQYHRLPLM | Ctrl | 1.82 | 6 of 6
KLSQSVEYESRNKNNVA | EASTRES | QQYHRLPLS | GP_Gen | -0.35 | 6 of 6
KLSQVTHSEHRLKNSIA | EMVTREK | QQYDRLPLS | En_HC | 1.12 | 5 of 6
KLSQSVLYESAASNAVA | NAMQRMD | QQYHRLPLS | GP_Gibbs | 0.06 | 6 of 6
KLSQSEWYESRNKNSVA | NASTRES | QQYHRLPLS | GP_Gen | -0.46 | 6 of 6
MVNTNLVHQANRDNNIA | EAQMVAA | QDYHRLPLI | En_Gibbs | 2.21 | 4 of 6
TLYGLSMSMAKNKNNVA | EMSTREK | QQYDRLPLI | En_Gen | 0.17 | 6 of 6
SVQYQLVNGRDIKNPVA | EASHHAA | QQYDRLPLG | En_Gibbs | 2.39 | 6 of 6
KSSQSVLYESRNKNSVA | SASTRES | QCRHRLPLS | Ctrl | 1.08 | 4 of 6
KLSQLVLYESRNKNSVA | NASTRMS | QQYHRLPLS | GP_Gen | 0.25 | 6 of 6
KIGGVTNGIMRSKNSVA | EQSTRED | QQYDRLPLS | En_HC | 0.33 | 6 of 6
KSSQSVLYESREKNPVA | WASHRES | QQYHDLPLS | Ctrl | no signal | 0 of 6
KLSQSMLYESRNKNNVA | SASHREH | QQYHRLPLS | GP_Gibbs | 0.43 | 6 of 6

The remaining entries, values ahead:

log10 Kd (nM), mean | seen in | CDR-L1 | CDR-L2 | CDR-L3 | group
0.95 | 5 of 6 | NVHALDAISQEFQNNVA | GQDCRDA | QQYFRLPLA | En_Gibbs
0.03 | 6 of 6 | KVSQSEEYESRWKNSVA | NASQRES | QQYHRLPLS | GP_Gibbs
-0.49 | 6 of 6 | KLQQSVLYESRNKNNVA | SASTRES | QQYHRLPLS | GP_Gen
0.57 | 6 of 6 | KSSISQLYESRMKNSVA | EASTRES | QQYHRLPLS | GP_HC
0.79 | 6 of 6 | MVTQLAMTGMMSKRSVA | NAETRES | QQYHRLPLI | En_Gen
-0.38 | 6 of 6 | KLSQSVLYESRNKNSVA | NANTREQ | QQYHRLPLS | GP_Gen
0.55 | 6 of 6 | KSAYSCLLESRNCNSVA | SASTREV | QQYHRLPLS | GP_Gibbs
0.97 | 6 of 6 | KISQSVLFWGHAINSVA | EMETREN | QQYDRLPLS | En_HC
2.63 | 5 of 6 | KLMQMTLTEGYFKNSVA | QASTREN | QSYHRLPLS | En_HC
0.29 | 6 of 6 | KSSQSVLNESRNKNSVA | DASTRES | QTYHRLPLS | GP_HC
1.50 | 6 of 6 | HISYSMAHLSRNKNSVA | NQQTREQ | QQYHRLPLS | En_HC
1.07 | 6 of 6 | MISQLYNMGSFAINSVA | QASQRCE | QQYDRLPLI | En_Gen
-0.30 | 6 of 6 | KLSQSVLYESRNKNSVA | EASTREQ | QQYHRLPLM | GP_Gen
0.98 | 6 of 6 | KISSMVKVGMTHQNSIA | EEQTRAK | QQYHRLPLA | En_Gen
-0.32 | 6 of 6 | KLQQSELYESRNKNSVA | HASTRES | QQYHRLPLS | GP_Gen
0.45 | 6 of 6 | KLGNQERMNGMANQNVA | AMNTVVD | QEYHRLPLI | En_Gibbs
0.22 | 6 of 6 | KSPQSHDYGSRNKNSVA | EASERES | QQYHRLPLS | GP_Gibbs
0.98 | 6 of 6 | KLSQSWLYESRNKNSVA | HASTRLS | QQYHRLPLS | GP_Gen
0.48 | 6 of 6 | KLQQSELYESRNKNSVA | NASKRMS | QQYHRLPLS | GP_Gen
0.96 | 6 of 6 | KLQQSWEYESRNKNSVA | NASTRMS | QQYHRLPLS | GP_Gen
0.73 | 6 of 6 | NLQLQPRDGAQAQSSIA | DVSEADM | QQYARLPLT | En_Gibbs
no signal | 0 of 6 | IVSQLMLWGWHAKNSIA | EAEMRTN | QQYDRLPLF | En_Gen
0.21 | 6 of 6 | RLRNDWNGWVNNGASIA | DANMYAP | QQYQRLPLA | En_Gibbs

The first 7 entries again:

CDR-L1,CDR-L2,CDR-L3,group,"log10 Kd (nM), mean",seen in
KVSEFERGLMSRQDSIA,DNVTRNN,QQYDRLPLS,En_Gen,2.61,1 of 6
KLQQSWEYESRNKNSVA,HASTRED,QQYHRLPLS,GP_HC,0.38,6 of 6
KLQFSCLYESRNKNSVA,DASYRLS,QQYHRLPLS,GP_Gibbs,0.76,6 of 6
KWSQSQLYESRNKNSVA,NASQRES,QQYHRLPLS,GP_Gen,no signal,0 of 6
KISQSVEYESFNKNSVA,WASTRES,QQYHRLPLS,Ctrl,1.37,6 of 6
KVSQSHDYESRNKNSVA,HASTRCS,QDYHRLPLS,GP_Gibbs,0.62,6 of 6
KLYQSVLYESRNKNAVA,NASTRES,QQYHRLPLS,GP_Gen,-0.24,6 of 6

The measurements come from Li et al. 2023 (doi:10.1038/s41467-023-39022-2) through the FLAb antibody collection.